Test results reported in patent US10465009B2, “BCMA antigen binding proteins” (Amgen Inc., priority 2012, dated 2019).
Entries after “also recorded” stand apart in the source; their conditions may differ.

Legend:
[1] = Differential Scanning calorimetry (DSC) thermostability; assay type: physicochemical; details: DSC, full-length antibody, Table 11
Text: Differential Scanning calorimetry (DSC) was used to compare the thermostability of parent and engineered antibodies. DSC is a thermodynamical tool for direct assessment of the heat energy uptake, which occurs in a sample within a regulated increase or decrease in temperature. DSC is commonly employed to assess the thermal and conformational stability of a protein. The melting temperature of a protein, or of individual domains, can be obtained from the DSC profile, and if the reaction is reversible the thermodynamic parameters of the unfolding can be determined. A protein is considered more thermostable when the Tm (transition temperature) is higher. When thermostability data are compared to other bioanalytical methods, like size exclusion chromatography (SEC), it has been observed that a correlation between greater thermostability (higher Tm) and decreased aggregation. Antibodies with a higher Tm and decreased aggregation formation have the potential for improved long-term stability thus potentially making better biotherapeutics.
DSC was carried out using a MicroCal™ VP-Capillary DSC system (GE Healthcare, Piscataway, N.J.) equipped with an auto-sampler. The temperature differences between the reference and sample cells are continuously measured, and calibrated to power units. For example, the full-length antibodies shown in TABLE 10 were diluted to 0.5 mg/mL in a buffered solution. The solution reference and protein samples were measured in a 135 μL cell from 20 to 110° C. at a heating rate of 60° C./hour. The pre-scan was set at 15 minutes while the filtering period was 10 seconds. Signal from the blank buffer solution was used for baseline subtraction. The data analysis was performed using MicroCal™ Origin 7 software. Heat capacity during protein melting was calculated by normalizing over protein concentration.

IV pH jump test of ADCs = assay type: physicochemical; details: dependence on DAR
Text: By reducing the molar equivalents of DM1-SMCC used in the conjugation process, the desired average DAR of 3 to 4 was achieved (see above).

[2] = test system: U266 luciferase-labeled myeloma cells; test: U266-luc bone-tropic xenograft model; assay type: in vivo, NSG mice
Description: In an additional myeloma bone-tropic xenograft model similar to that above, U266 luciferase-labeled myeloma cells that express an average of 9,000 BCMA sites per cell were administered intravenously (1×10^6 cells) into NSG mice. Twenty eight days after tumor inoculation, tumor-bearing animals were randomized based on hind limb bioluminescence (tumor burden) into groups of ten animals each and dosed intravenously or intraperitoneally as denoted by the red Rx symbol. A blinded dosing study of 2A1CV5-MCC-DM1, unconjugated 2A1CV5 and PBS employing a single dose of 250 ug DM1/kg (10 mg Ab/kg) administered at day 28 was performed in this established bone-tropic tumor model. Following euthanasia, the animals were radiographed. The hind limbs were disarticulated, fixed in 10% neutral buffered formalin and decalcified. Bones were subsequently processed, embedded, sectioned and a single representative bone from each animal was stained by H&E, TRAP stain and for huCD138 expression (IHC). Bone sections were examined microscopically to determine if residual disease (huCD138+ cells) were present and to estimate the extent of the surface of the medullary cavity and bone spicules that was covered by TRAP+ osteoclasts.

[3] = biological target: T1, [6x Histidine-SUMO]-huBCMA (SEQ ID NO:350) and carboxy terminal clipped forms (Homo sapiens, UniProt Q02223); test: Size exclusion chromatography and LC/MS of antibody complexes with Sumo-huBCMA and its clipped forms; assay type: binding; details: SEC
T1 construct: GGS-G3 linker + Avi tag (lost in the clipped species) (C); made in house
T1 sequence (Q02223 5-54): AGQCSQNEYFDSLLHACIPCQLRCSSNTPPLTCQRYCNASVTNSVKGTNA
Text: To determine which forms of 6×His-SUMO-huBCMA were bound to the anti-huBCMA antibodies, the SEC fractions were isolated and analyzed. Carboxy-terminus fragments of the extracellular domain of human BCMA were generated as clipped forms from the rhuBCMA fusion protein (6×His::Sumo::huBCMA(aa 5-51)::GGS::G3::Avi) of SEQ ID NO:350, as shown in FIG. 45.
A Superdex 200™ 10/30 cm SEC column (GE Healthcare Life Sciences) was used according to the manufacturer's recommendations and run in phosphate buffered saline (PBS). Incubations of antibody with excess levels of sumoBCMA were performed at room temperature for at least 30 minutes.
A Superdex 200™ 10/30 cm SEC column (GE Healthcare Life Sciences) was used according to the manufacturer's recommended condision and run in phosphate buffered saline (PBS). Incubations of antibody with excess levels of sumoBCMA were performed at room temperature for at least 30 minutes.
5 ug of total proteins were reduced in 50 mM Tris/4 M guanidine/9 mM DTT, pH 8.0 at 55° C. for 15 min, and analyzed in Agilent LCTOF system using a Vydac C8 column, 2.1 mm ID×150 mm, […] particle size. […] TOF MS conditions included capillary voltage of 4000 V, drying gas flow at 10 L/min, dry gas temperature at 300° C., nebulizer gas flow at 40 L/min, and fragmentor voltage of 300 V. MS data was analyzed in Agilent MassHunter™ Qualitative Analysis program.

[4] = Isoelectric point of whole antibody; assay type: physicochemical

B1: Ab-1 (antibody)
heavy: EVQLVESGGGLVKPGGSLRLSCAASGFTFGDYALSWFRQAPGKGLEWVGVSRSKAYGGTTDYAASVKGRFTISRDDSKSTAYLQMNSLKTEDTAVYYCASSGYSSGWTPFDYWGQGTLVTVSSASTKGPSVFPLAPSSKSTSGGTAALGCLVKDYFPEPVTVSWNSGALTSGVHTFPAVLQSSGLYSLSSVVTVPSSSLGTQTYICNVNHKPSNTKVDKKV[omitted - human IgG1 Fc]
light: QSVLTQPPSASGTPGQRVTISCSGSSSNIGSNTVNWYQQLPGTAPKLLIFNYHQRPSGVPDRFSGSKSGSSASLAISGLQSEDEADYYCAAWDDSLNGWVFGGGTKLTVLGQPKAAPSVTLFPPSSEELQANKATLVCLISDFYPGAVTVAWKADSSPVKAGVETTTPSKQSNNKYAASSYLSLTPEQWKSHRSYSCQVTHEGSTVEKTVAPTECS
- Tm [1]: 76 °C
- precipitation / stability in IV pH jump test (IV pH jump test of ADCs): stable to pH changes
- antitumor effect (hind limb bioluminescence) ([2]; single dose 250 ug DM1/kg (10 mg Ab/kg) at day 28, IV or IP): modest decrease in tumor growth
- residual disease in bone (histology, huCD138, TRAP) ([2]; single injection, IV or IP route): slowed tumor growth but did not cure animals of their disease
- binding to full-length and truncated forms of huBCMA [3]: bind all fragments of human BCMA; also recorded: bound various fragments of human BCMA
- pI (Whole) [4]: 8.39
